Our source for the Kd and ΔG values is publication PMC4945863, “Dual thio-digalactoside-binding modes of human galectins as the structural basis for the design of potent and selective inhibitors” (Scientific Reports, 2016).

Sequences of proteins named here, by UniProt entry; tags and fusion partners are left off.
UniProt P47929, whole entry: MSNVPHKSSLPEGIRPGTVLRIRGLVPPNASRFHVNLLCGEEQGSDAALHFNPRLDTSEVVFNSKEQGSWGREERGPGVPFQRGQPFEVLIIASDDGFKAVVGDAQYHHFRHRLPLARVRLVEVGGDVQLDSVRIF
UniProt P09382, whole entry: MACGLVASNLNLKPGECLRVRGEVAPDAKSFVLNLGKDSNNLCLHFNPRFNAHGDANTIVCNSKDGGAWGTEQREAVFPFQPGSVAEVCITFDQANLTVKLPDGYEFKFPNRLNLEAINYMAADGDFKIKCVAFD

One assay deals with T1, galectin-7 (Homo sapiens, UniProt P47929).
T1 construct: (residues 1-136); 6xHis; made in house; host or cells: Escherichia coli BL21 (DE3)
Briefly: Isothermal titration calorimetry (ITC), galectin-7. The assay is classed as binding. The conditions noted are these: 298 K. On the procedure: (§1) Human galectins-1, -3CRD and -7 were produced in E. coli according to previous studies.
(§2) Samples for use in ITC were diluted to appropriate concentrations in dialysate buffer (25 mM Tris-HCl pH 8.0, 300 mM NaCl and 5 mM β-mercaptoethanol) saved from the ultrafiltration step. All samples were filtered with 0.22 μm cutoff filters (Millipore) and extensively degassed with stirring prior to use. […] To avoid heating effects due to differing concentration of DMSO in the injectant and protein solutions, 5% DMSO was added to the protein. Software provided by Microcal was used for the curve fitting of the experimental data as well as for calculation of the thermodynamic data. Specifically, all ITC data were corrected for the heat of dilution of the titrant by subtracting the excess heats at high molar ratios of ligands to galectins. Binding stoichiometry, enthalpy and equilibrium association constants were determined by fitting the corrected data to a bimolecular interaction model and summarised in Table 1.
(§3) Isothermal titration calorimetry (ITC). […]
(§4) Specifically, all ITC data were corrected for the heat of dilution of the titrant by subtracting the excess heats at high molar ratios of ligands to galectins. Binding stoichiometry, enthalpy and equilibrium association constants were determined by fitting the corrected data to a bimolecular
A general note: In ITC the heat of successive injections is recorded.

The next assay addresses T2, galectin-1 (Homo sapiens, UniProt P09382).
T2 construct: full-length galectins-1 (residues 1-135); 6xHis; made in house; host or cells: Escherichia coli BL21 (DE3)
Briefly: Isothermal titration calorimetry (ITC), galectin-1. The assay is classed as binding. The conditions noted are these: 298 K. On the procedure:
as §1, §2, §3, §4

A word on the Kd: it is the concentration at which binding is half-saturated. Lower therefore signals higher affinity. `OC[C@H]1O[C@@H](S[C@@H]2O[C@H](CO)[C@H](O)[C@H](O)[C@H]2O)[C@H](O)[C@@H](O)[C@H]1O` [TDG, thio-digalactoside] returned a dissociation constant (Kd) at galectin-7 of 573 ± 57.7 µM. On galectin-1, this compound came in with a Kd of 67.3 ± 8.6 µM and a ΔG of -5.7 ± 0.08 kcal/mol.
